Literature values in US7422793B2, “Non-toxic corrosion-protection rinses and seals based on rare earth elements” (University of Dayton, priority 2002, dated 2008).

Conditions: pH 7; cited from earlier work

Molecule | Solubility in Water [mM]
F[Si-2](F)(F)(F)(F)F.[Cs+].[Cs+] [Cesium hexafluorosilicate] | 23
F[Si-2](F)(F)(F)(F)F.[Sr+2] [Strontium hexafluorosilicate] | 110
F[B-](F)(F)F.[Cs+] [Cesium tetrafluoroborate] | 500
Rubidium tetrafluoroborate | 100
Rubidium fluorogermanate | 17
